The values below are quoted from earlier work in US10473640B2, “Drug selection for gastric cancer therapy using antibody-based arrays” (Société des Produits Nestlé S.A., priority 2006, dated 2019).

The subject of one series is HER2(+) gastric cancer. Particulars: XP+trastuzumab vs capecitabine+cisplatin (XP); cited from earlier work.
Series [1] relates to HER2(+) metastatic breast cancer. The following applies: cited from earlier work.

With “trastuzumab: humanized monoclonal antibody which selectively targets HER2”, in the series on HER2(+) gastric cancer, the “progression free survival rate” value is on record as “significant prolongation”. The survival entry in series [1] is reported as “survival benefit”.
